Values of other authors, collected in patent US20170027951A1, “METHODS AND COMPOSITIONS TO TREAT CANCERS INVOLVING EGFR” (Southern Research Institute, priority 2015, published 2017).

Settings: patients with mCRC, Karapetis et al. 2008; cited from earlier work

cetuximab
patients with WT KRas who respond: 12.8%
